Literature values as cited in patent publication US20120252037A1, “STIMULATORY AUTO-ANTIBODIES TO THE PDGF RECEPTOR AS PATHOLOGY MARKER AND THERAPEUTIC TARGET” (priority 2005, published 2012).

Sequences of proteins named here, by UniProt entry; tags and fusion partners are left off. Residues count along the entry.
UniProt P00533, 25-1210: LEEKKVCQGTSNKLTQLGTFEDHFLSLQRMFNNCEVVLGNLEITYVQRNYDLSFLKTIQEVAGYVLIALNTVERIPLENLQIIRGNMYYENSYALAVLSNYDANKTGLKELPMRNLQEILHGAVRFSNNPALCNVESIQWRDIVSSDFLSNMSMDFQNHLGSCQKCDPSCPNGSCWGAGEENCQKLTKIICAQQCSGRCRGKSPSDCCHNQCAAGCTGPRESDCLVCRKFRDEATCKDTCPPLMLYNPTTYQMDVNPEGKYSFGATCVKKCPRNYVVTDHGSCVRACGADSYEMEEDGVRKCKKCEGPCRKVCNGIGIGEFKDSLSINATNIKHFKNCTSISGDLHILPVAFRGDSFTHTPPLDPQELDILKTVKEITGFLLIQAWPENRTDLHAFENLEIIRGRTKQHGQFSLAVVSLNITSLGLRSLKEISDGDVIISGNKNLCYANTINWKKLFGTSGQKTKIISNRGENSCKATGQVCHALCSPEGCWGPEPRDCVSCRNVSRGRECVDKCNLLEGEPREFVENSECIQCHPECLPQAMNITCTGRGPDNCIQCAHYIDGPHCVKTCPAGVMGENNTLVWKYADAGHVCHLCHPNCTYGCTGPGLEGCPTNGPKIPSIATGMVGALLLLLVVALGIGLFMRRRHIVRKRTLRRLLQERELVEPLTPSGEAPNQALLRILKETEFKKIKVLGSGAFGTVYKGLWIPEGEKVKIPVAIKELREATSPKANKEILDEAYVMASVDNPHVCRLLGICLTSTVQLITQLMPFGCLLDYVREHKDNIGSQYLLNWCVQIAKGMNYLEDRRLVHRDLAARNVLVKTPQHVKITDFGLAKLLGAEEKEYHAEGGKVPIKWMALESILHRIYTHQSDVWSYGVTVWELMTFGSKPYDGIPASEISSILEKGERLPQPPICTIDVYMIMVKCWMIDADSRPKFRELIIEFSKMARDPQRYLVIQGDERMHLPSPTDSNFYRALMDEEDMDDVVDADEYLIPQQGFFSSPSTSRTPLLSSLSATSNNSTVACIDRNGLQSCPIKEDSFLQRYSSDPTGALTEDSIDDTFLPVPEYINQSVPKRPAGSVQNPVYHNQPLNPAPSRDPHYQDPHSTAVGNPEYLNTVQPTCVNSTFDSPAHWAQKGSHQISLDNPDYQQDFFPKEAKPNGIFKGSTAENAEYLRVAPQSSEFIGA

Biological target: EGF receptor (Homo sapiens, UniProt P00533)
Conditions: cited from earlier work

Question: With COc1cc2ncnc(Nc3cccc(Cl)c3)c2cc1OC [AG1478] as the compound, how does the IC50 read?
Answer: The IC50 was 3 nM.
